Biological target: herpes protease (HSV-1 UL26 product, Pra) (Human herpesvirus 1, UniProt P10210)
Type: biochemical

Protein sequences, listed by entry. Tags and fused reporters are not part of them. Lines headed by an entry give the natural chain unless they say otherwise; changes in a name come on top.
UniProt P10210: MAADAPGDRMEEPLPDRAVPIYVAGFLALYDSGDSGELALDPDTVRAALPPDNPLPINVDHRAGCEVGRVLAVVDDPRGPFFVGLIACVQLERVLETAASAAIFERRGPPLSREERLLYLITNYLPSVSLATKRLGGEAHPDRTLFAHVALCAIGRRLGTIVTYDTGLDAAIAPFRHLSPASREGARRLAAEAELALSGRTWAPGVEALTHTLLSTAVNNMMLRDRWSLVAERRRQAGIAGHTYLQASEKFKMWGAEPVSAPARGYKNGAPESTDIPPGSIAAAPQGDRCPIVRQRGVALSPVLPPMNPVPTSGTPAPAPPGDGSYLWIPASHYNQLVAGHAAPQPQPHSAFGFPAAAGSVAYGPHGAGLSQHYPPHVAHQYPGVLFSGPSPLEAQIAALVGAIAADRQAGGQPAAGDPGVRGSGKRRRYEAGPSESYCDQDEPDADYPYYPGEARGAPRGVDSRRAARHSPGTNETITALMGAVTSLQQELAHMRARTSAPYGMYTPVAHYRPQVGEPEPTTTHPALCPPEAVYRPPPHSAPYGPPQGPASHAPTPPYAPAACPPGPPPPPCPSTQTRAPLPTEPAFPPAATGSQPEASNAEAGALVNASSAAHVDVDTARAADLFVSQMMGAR

`O=S(=O)(F)Cc1ccccc1` [Phenylmethansulfonyl fluoride] was tested, and the “inhibition of the protease” value was “at least 50%”.

Reference: patent US6410704B1 (priority 1991, dated 2002)
